Test results taken from patent US11648295B2, “Methods of treating diseases resulting from a maladapted stress response” (Cortene Inc., priority 2016, dated 2023).

What was measured:
[1] = tested on: stable congestive heart failure patients; details: i.v. infusion over 1 hour; cited from earlier work
CRFR1 [2] = molecular target: T1, CRFR1 (Homo sapiens, UniProt P34998); assay: in vitro binding potential for CRFR1 (table of FIG. 10); format: biochemical
T1 sequence (P34998 24-415): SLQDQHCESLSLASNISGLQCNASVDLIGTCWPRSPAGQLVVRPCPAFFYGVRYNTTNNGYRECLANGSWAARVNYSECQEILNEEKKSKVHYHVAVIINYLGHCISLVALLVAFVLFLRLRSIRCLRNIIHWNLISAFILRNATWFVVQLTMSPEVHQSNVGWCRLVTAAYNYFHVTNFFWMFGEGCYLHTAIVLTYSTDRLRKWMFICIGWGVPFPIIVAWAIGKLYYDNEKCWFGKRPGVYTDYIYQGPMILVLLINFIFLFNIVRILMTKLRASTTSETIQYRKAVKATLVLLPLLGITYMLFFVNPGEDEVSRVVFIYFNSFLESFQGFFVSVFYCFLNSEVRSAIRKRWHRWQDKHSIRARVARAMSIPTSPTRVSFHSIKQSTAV

healthy human subjects [3] = details: continuous (i.v. infusion) plasma concentrations, healthy humans, FIG. 10; cited from earlier work
CRFR2 = molecular target: T2, CRFR2 (Homo sapiens, UniProt Q13324); assay: in vitro potency / binding potential for CRFR2 (table of FIG. 10); format: biochemical
T2 sequence (Q13324 1-411): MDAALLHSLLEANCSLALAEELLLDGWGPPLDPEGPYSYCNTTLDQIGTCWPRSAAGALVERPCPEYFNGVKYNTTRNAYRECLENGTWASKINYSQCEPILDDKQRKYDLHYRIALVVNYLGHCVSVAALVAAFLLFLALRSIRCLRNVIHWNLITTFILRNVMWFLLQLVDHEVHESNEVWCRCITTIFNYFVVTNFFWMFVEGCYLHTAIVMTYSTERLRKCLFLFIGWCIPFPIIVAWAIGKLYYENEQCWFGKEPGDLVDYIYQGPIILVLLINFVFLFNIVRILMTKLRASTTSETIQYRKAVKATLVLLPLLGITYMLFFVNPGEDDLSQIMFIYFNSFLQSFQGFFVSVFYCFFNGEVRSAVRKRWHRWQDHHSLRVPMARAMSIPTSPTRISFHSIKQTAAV

CRFR1 [4] = molecular target: CRFR1 (Homo sapiens, UniProt P34998); assay: EC50, nmol (% of Emax) | CRFR1
Text: Table printed on a drawing sheet, FIGURE 10
Title: Pharmacokinetic Parameters
Head of the field: EC50, nmol (% of Emax) | CRFR1
Footnotes: FIGURE 10: Effect of maximum or steady state plasma concentrations (Cmax or Css) of various CRFR2 agonists (CT38, SCP or Ucn2), dosed by subcutaneous bolus (triangles) or intravenous infusion (circles), on the maximum heart rate (HRmax) in healthy subjects (solid lines) or stable congestive heart failure patients (dashed lines). The table provides comparative pharmacokinetic parameters for the CRFR2 agonists.
That is, for strongly potent CRFR2 agonists and relative intermediate plasma concentrations, the loss of the ability to induce a heart rate increase via continuous dosing, was driven by the duration of dosing, and appeared to occur with different selective CRFR2 agonists (e.g., Ucn2, stresscopin), irrespective of the condition of the human subject.
First copying reader's note: Each EC50 cell holds the EC50 in nmol with the % of Emax in brackets after it.
Where the first naming reader finds the target: head: EC50, nmol (% of Emax) | CRFR1

male Sprague Dawley rats [5] = assay: Example 4: renal function (urine volume and chemistry) after s.c. bolus; format: in vivo, rat; details: normal rats
male Sprague Dawley rats [6] = assay: Example 1: telemetry of heart rate, blood pressure, body temperature after s.c. bolus; format: in vivo, rat; details: normal rats
healthy human subjects [7] = assay: Example 9: Phase 1 single ascending dose trial, s.c. bolus; format: in vivo
Description: In a Phase 1 human single ascending dose clinical trial (2005051), CT38s was dosed by subcutaneous injection (bolus) in cohorts of human subjects (each cohort receiving the same dose; rising dose across cohorts). The purpose of this trial was to determine the maximum tolerated bolus dose of CT38s in healthy human subjects.

male Sprague Dawley rats [8] = assay: Example 6: spontaneous motor activity after s.c. bolus; format: in vivo, rat; details: varying doses, normal rats
male Sprague Dawley rats [9] = assay: Example 2: respiratory rate and tidal volume (plethysmography) after s.c. bolus; details: normal rats
male Sprague Dawley rats [10] = assay: Example 3: gastrointestinal transit of a charcoal meal after s.c. bolus; format: in vivo, rat; details: at 30 mins post-dose, normal rats
[11] = s.c. single daily bolus, varying doses
[12] = bolus dose, healthy human subjects

## CC[C@H](C)[C@H](N)C(=O)N[C@H](C(=O)N[C@@H](CC(C)C)C(=O)N[C@@H](CO)C(=O)N[C@@H](CC(C)C)C(=O)N[C@@H](CC(=O)O)C(=O)N[C@H](C(=O)N1CCC[C@H]1C(=O)N[C@H](C(=O)NCC(=O)N[C@@H](CC(C)C)C(=O)N[C@@H](CC(C)C)C(=O)N[C@@H](CCC(N)=O)C(=O)N[C@H](C(=O)N[C@@H](CC(C)C)C(=O)N[C@@H](CC(C)C)C(=O)N[C@@H](CCC(=O)O)C(=O)N[C@@H](CCC(N)=O)C(=O)N[C@@H](C)C(=O)N[C@@H](CCCNC(=N)N)C(=O)N[C@@H](C)C(=O)N[C@@H](CCCNC(=N)N)C(=O)N[C@@H](C)C(=O)N[C@@H](C)C(=O)N[C@@H](CCCNC(=N)N)C(=O)N[C@@H](CCC(=O)O)C(=O)N[C@@H](CCC(N)=O)C(=O)N[C@@H](C)C(=O)N[C@H](C(=O)N[C@H](C(=O)N[C@@H](CC(N)=O)C(=O)N[C@@H](C)C(=O)N[C@@H](CCCNC(=N)N)C(=O)N[C@H](C(=O)N[C@@H](CC(C)C)C(=O)N[C@@H](C)C(=O)N[C@@H](CCCNC(=N)N)C(=O)N[C@H](C(N)=O)C(C)C)[C@@H](C)CC)[C@@H](C)O)[C@@H](C)O)[C@@H](C)CC)[C@@H](C)CC)C(C)C)C(C)C [Ucn2, urocortin 2]
[1]
  pattern of effect on heart rate versus healthy subjects: did not change
CRFR1 [2]
  in vitro binding potential for CRFR1: minimal, at high concentrations
Healthy human subjects [3]
  effect of plasma concentration on heart rate, compared with CT38 bolus: much diminished
CRFR2; in vitro, read-out: EC50 (achieves maximal CRFR2 stimulation)
  EC50: 4.3 nM
CRFR2; table of FIG. 10
  in vitro binding potential for CRFR2: maximal, at low concentrations
CRFR1 [4]
  EC50, nmol (% of Emax) | CRFR1: > 1000 (7.6) nmol (% of Emax)

## CC[C@H](C)[C@H](NC(=O)[C@@H](NC(=O)[C@H](CC(=O)O)NC(=O)[C@H](CC(C)C)NC(=O)[C@H](CC(C)C)NC(=O)[C@H](CCCNC(=N)N)NC(=O)[C@H](C)NC(=O)[C@H](CC(N)=O)NC(=O)[C@H](CC(N)=O)NC(=O)[C@H](C)NC(=O)[C@H](C)NC(=O)[C@H](CCC(N)=O)NC(=O)[C@H](CCC(N)=O)NC(=O)[C@H](CCCCN)NC(=O)[C@H](CCC(=O)O)NC(=O)[C@H](CCCCN)NC(=O)[C@H](CCC(=O)O)NC(=O)[C@H](CCC(N)=O)NC(=O)[C@H](CCCCN)NC(=O)[C@H](CCC(=O)O)NC(=O)[C@@H](NC(=O)[C@H](CCC(=O)O)NC(=O)[C@@H](NC(=O)[C@@H](NC(=O)[C@H](CCCCN)NC(=O)[C@H](CCCNC(=N)N)NC(=O)[C@H](CC(C)C)NC(=O)[C@H](CC(C)C)NC(=O)[C@H](CCC(N)=O)NC(=O)[C@H](Cc1ccccc1)NC(=O)[C@@H]1CCCN1C(=O)[C@H](CC(C)C)NC(=O)[C@H](CC(=O)O)NC(=O)[C@@H](NC(=O)[C@H](CO)NC(=O)[C@@H](NC(=O)[C@@H]1CCCN1C(=O)[C@@H]1CCCN1C(=O)CNC(=O)[C@@H]1CCC(=O)N1)[C@@H](C)CC)[C@@H](C)CC)C(C)C)[C@@H](C)CC)[C@@H](C)CC)[C@@H](C)O)C(N)=O [CT38s]
Male Sprague Dawley rats [5]; 0-4 hours post-dose
  renal function: urinary volume and electrolyte excretion: decreased urinary volume and electrolyte excretion
Male Sprague Dawley rats [5]; 4-8 hours post-dose
  renal function: urinary volume and electrolyte excretion: increased urinary volume and electrolyte excretion
Male Sprague Dawley rats [6]; s.c. bolus
  blood pressure returning to control values: ≤ 4 hours post-dose
  body temperature returning to control values: ≤ 8 hours post-dose
  heart rate returning to control values: ≤ 4 hours post-dose
  time of maximal heart rate relative to vehicle: 30 mins post-dose
  time of minimal blood pressure relative to vehicle: 30 mins post-dose
  time of minimal body temperature relative to vehicle: 1 hour post-dose
Male Sprague Dawley rats [6]; [11]
  effect on blood pressure: decreases in blood pressure
  effect on body temperature: decreases in body temperature
  effect on heart rate: significant dose-responsive increases in heart rate
Healthy human subjects [7]; [12]
  effect on blood pressure: decreased blood pressure
  effect on heart rate: transiently increased heart rate
Healthy human subjects [7]; healthy young males, s.c. injection
  minimum stimulating bolus dose to induce a heart rate increase: 0.2 µg/kg of body weight
Healthy human subjects [7]; s.c. bolus, healthy human subjects, FIG. 9C
  plasma concentration rise in any 15-minute period that caused increased heart rate: > 0.2 ng/mL
Male Sprague Dawley rats [8]
  effect on number of vertical movements: significant dose responsive decreases
  effect on total distance traveled: significant dose responsive decreases
Male Sprague Dawley rats [9]; at 1 hour post-dose
  effect on respiratory rate: significant dose-responsive decreases in respiratory rate
Male Sprague Dawley rats [9]
  respiratory rate returning to control values: ≤ 2 hours post-dose
Male Sprague Dawley rats [9]; not shown
  effect on tidal volume: smaller changes in tidal volume
Male Sprague Dawley rats [10]
  effect on gastrointestinal transit: significant dose-responsive delays in gastrointestinal transit
